Target: polymerised, Taxol-stabilised microtubules of bovine brain tubulin (bovine) (UniProt Q6B856)
Assay: co-sedimentation; polymerised, Taxol-stabilised bovine brain tubulin (~5 µg) incubated with His6-tagged WT or mutant fascin (1:1 ratio) in GTB (50 mM PIPES pH 6.8, 1 mM EGTA, 1 mM MgCl2) for 30 min at 25°C; 20,000 g for 30 min at 25°C; supernatant and pellet on SDS-PAGE, silver staining, densitometry

percent of fascin in the pellet: 25%
Substance: His6-tagged wild-type human fascin (from UniProt Q16658 1-493) (natural protein)
